What was measured:
[1] = target: Serotonin receptor 2a and 2b (5HT2A and 5HT2B) (Rattus norvegicus) (UniProt P30994+P14842); assay: Relative binding to serotonin receptors 5-HT-2B and 5-HT-2A (Ratio of […] Ki); type: protein assay
Rattus norvegicus = organism: Rattus norvegicus; assay: Relative binding to serotonin receptors 5-HT-2B to 5-HT2C (Ratio of […] Ki)

Amino acid sequences for entries named in this document (tags omitted).
UniProt P30994, whole entry, looked up: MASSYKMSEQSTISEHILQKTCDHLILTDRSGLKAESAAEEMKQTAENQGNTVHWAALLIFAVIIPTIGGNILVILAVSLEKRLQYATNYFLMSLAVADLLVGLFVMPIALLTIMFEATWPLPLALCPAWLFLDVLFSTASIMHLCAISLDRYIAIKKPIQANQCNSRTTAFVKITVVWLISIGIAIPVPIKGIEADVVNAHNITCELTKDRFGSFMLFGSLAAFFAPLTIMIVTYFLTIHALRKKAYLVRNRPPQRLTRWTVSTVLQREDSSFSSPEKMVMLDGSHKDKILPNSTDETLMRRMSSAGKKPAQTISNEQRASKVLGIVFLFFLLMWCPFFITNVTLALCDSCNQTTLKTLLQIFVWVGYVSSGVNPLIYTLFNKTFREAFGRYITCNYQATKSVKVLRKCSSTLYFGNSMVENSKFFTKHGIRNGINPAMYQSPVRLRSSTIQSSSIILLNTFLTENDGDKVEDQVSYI
UniProt P14842, whole entry, looked up: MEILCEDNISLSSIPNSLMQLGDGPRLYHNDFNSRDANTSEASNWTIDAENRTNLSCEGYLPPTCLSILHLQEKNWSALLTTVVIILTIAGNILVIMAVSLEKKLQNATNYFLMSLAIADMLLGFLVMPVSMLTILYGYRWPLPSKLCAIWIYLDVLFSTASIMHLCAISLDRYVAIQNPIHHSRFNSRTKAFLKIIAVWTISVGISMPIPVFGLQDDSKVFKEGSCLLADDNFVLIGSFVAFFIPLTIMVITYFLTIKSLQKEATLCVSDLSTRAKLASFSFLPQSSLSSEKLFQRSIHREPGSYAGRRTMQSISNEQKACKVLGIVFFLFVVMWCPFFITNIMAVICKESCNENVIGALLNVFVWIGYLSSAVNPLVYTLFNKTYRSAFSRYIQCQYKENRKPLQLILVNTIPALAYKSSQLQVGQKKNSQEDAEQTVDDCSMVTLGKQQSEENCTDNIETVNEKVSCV

Ratio [1]: 490 | Ratio (Rattus norvegicus): 3.02
SMILES: Cn1ccc2cc3c(cc21)CCN3C(=O)Nc1cccnc1
